Test results as given in paper PMC6155600, “Design, Synthesis and Cellular Characterization of a Dual Inhibitor of 5-Lipoxygenase and Soluble Epoxide Hydrolase” (Molecules : A Journal of Synthetic Chemistry and Natural …, 2016).

Amino acid sequences for entries named in this document (tags omitted).
UniProt P34913, whole entry: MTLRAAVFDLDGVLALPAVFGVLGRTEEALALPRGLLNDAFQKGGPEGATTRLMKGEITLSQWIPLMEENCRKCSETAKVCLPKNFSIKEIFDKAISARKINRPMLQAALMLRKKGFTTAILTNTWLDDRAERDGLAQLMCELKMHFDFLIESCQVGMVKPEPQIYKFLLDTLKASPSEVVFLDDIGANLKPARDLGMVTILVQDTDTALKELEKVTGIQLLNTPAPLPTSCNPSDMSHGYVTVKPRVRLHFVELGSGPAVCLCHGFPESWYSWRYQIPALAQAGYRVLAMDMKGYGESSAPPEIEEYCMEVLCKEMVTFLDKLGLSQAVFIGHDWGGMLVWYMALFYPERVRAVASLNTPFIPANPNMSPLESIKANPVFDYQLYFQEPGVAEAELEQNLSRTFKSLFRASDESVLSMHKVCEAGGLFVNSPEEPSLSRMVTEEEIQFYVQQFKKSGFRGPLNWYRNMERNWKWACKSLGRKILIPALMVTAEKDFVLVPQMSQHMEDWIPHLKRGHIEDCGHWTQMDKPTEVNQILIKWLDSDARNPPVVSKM

Biological target: T1, soluble epoxide hydrolase (sEH) (Homo sapiens, UniProt P34913)
T1 construct: gene EPHX2
Test: fluorescence-based enzyme activity assay with recombinant human sEH (PHOME substrate)
Format: biochemical

`O=C(Nc1ccc(I)cc1)NC1CCCCC1` [CIU, N-cyclohexyl-N′-(4-iodophenyl)urea, reference compound] showed an IC50 of 140 nM.
